Tested on: human telomerase (extract of A549 cells), oligonucleotide TSG4
Assay: Antitelomerase activity by the TRAP-G4 assay
Assay type: biochemical
Conditions: IC50 Taq/IC50 TRAP-G4 ratio
Description: The extract is stored at -80° C.

Structure (SMILES)	Inhibition of telomerase Selectivity factor
C[n+]1cccc2cc(NC(=O)c3cccc(C(=O)NCC[N+]4(C)CCCCC4)n3)ccc21.[I-].[I-] [Example 12, 2-[(1-methylquinolinio-6-yl)amido]-6-[2(-1-methylpiperidinio-1-yl)ethylamido]-2,6-pyridinedicarboxylic acid diiodide]	>66
C[n+]1cccc2cc(NC(=O)c3cccc(C(=O)Nc4ccc5c(ccc[n+]5C)c4)c3)ccc21.[I-].[I-] [Example 4, bis[(1-methylquinolinio-6-yl)amido]-1,3-benzenedicarboxylic acid diiodide]	>10
Cc1cc(=N)c2cc(NC(=O)c3cccc(C(=O)Nc4ccc5c(ccc[n+]5C)c4)n3)ccc2[nH]1.[I-] [Example 6, 2-[(1-methylquinolinio-6-yl)amido]-6-[(4-aminoquinaldinio-6-yl)amido]-2,6-pyridinedicarboxylic acid iodide]	10
C[n+]1cc(NC(=O)c2cccc(C(=O)Nc3cc4ccccc4[n+](C)c3)n2)cc2ccccc21.[I-].[I-] [Example 11, bis[(1-methylquinolinio-3-yl)amido]-2,6-pyridinedicarboxylic acid diiodide]	116
Cc1ccc2cc(NC(=O)c3cccc(C(=O)Nc4ccc5c(ccc(C)[n+]5C)c4)n3)ccc2[n+]1C.[I-].[I-] [Example 5, bis[(1-methylquinaldinio-6-yl)amido]-2,6-pyridinedicarboxylic acid diiodide]	35
C[n+]1cccc2cc(NC(=O)c3cccc(C(=O)Nc4ccc5c(ccc[n+]5C)c4)n3)ccc21.[I-].[I-] [Example 1, bis[(1-methylquinolinio-6-yl)amido]-2,6-pyridinedicarboxylic acid diiodide]	33
Cc1cc(N(C)C)c2cc(NC(=O)c3cccc(C(=O)Nc4ccc5c(ccc[n+]5C)c4)n3)ccc2[n+]1C.[I-].[I-] [Example 2, 2-[(1-methylquinolinio-6-yl)amido]-6-[(4-dimethylamino-1-methylquinaldinio-6-yl)amido]-2,6-pyridinedicarboxylic acid diiodide]	70
Cc1ccc2cc(NC(=O)c3cccc(C(=O)Nc4ccc5c(ccc(C)[n+]5C)c4)c3)ccc2[n+]1C.[I-].[I-] [Example 7, bis[(1-methylquinaldinio-6-yl)amido]-2,6-benzenedicarboxylic acid diiodide]	>3.3
C[n+]1cccc2cc(NC(=O)c3cccc(C(=O)Nc4cc5ccccc5[n+](C)c4)n3)ccc21.[I-].[I-] [Example 9, 2-[(1-methylquinolinio-6-yl)amido]-6-[(1-methylquinolinio-3-yl)amido]-2,6-pyridinedicarboxylic acid iodide]	150
C[n+]1cccc2cc(NC(=O)c3cccc(C(=O)Nc4cccc5c4ccc[n+]5C)n3)ccc21.[I-].[I-] [Example 10, 2-[(1-methylquinolinio-6-yl)amido]-6-[(1-methylquinolinio-5-yl)amido]-2,6-pyridinedicarboxylic acid iodide]	>10
C[n+]1cccc2cc(NC(=O)c3ccnc(C(=O)Nc4ccc5c(ccc[n+]5C)c4)c3)ccc21.[I-].[I-] [Example 8, bis[(1-methylquinolin-6-yl)amido]-2,4-pyridinedicarboxylic acid diiodide]	>3.3
C[n+]1cccc2cc(NC(=O)c3cncc(C(=O)Nc4ccc5c(ccc[n+]5C)c4)n3)ccc21.[I-].[I-] [Example 3, bis[(1-methylquinolinio-6-yl)amido]-2,6-pyrazinedicarboxylic acid diiodide]	40
